Our source for the IC50 values is US8618075B2, “Certain compounds, compositions and methods” (Eisai Inc., priority 2007, dated 2013).

Sequences of proteins named here, by UniProt entry; tags and fusion partners are left off. A change or cut given only in a name is not applied to a line headed by its entry.
UniProt P32320: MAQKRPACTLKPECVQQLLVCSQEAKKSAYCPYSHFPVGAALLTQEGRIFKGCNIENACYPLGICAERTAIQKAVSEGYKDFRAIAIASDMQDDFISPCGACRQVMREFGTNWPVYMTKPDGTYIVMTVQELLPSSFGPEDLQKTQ

As usually defined, the IC50 is the concentration needed to halve the response being measured.

In the assay the target is purified human recombinant CDA (Homo sapiens (Human), UniProt P32320). The assay can be described thus: CDA enzymatic activity assay (absorbance change at 286 nm, deamination of cytidine to uridine). The assay is classed as biochemical. The note with it: cytidine 50 μM, potassium phosphate buffer pH 7.4.

For the substance “2′(R)-Fluoro-2′-deoxy-TetraHydroUridine [Compound 2]”, the IC50 was determined as 2000 ± 3000 nM.
For “2′(S)-fluoro-2′deoxy-tetrahydrouridine [Compound 3]” the value was 2000 ± 1000 nM.
